{"source": "patent US11459547B2", "about": "“Method for producing osteoblast cluster using human iPS cells” (priority 2017, dated 2022)", "tested_on": "human iPS cell embryoid bodies (409B2)", "test": "Mesoderm induction ratio by immunofluorescent staining of Brachyury", "assay_type": "cell-based", "conditions": "embryoid body formation 1 day; mesoderm differentiation induction medium with or free of CHIR99021 or cyclopamine; the label names the compound(s) present; 17% in the absence of both", "procedure": "The immunostaining was pertained using: anti-Brachyury polyclonal antibody (AF2085, R&D SYSTEMS) as a primary antibody; Alexa Fluor594-labeled anti-goat IgG antibody (Thermo Fisher Scientific) as a secondary antibody; and Hoechst 33258 (Thermo Fisher Scientific) for nuclear staining.\nIn addition, a mesoderm induction ratio in the case where the embryoid bodies were cultured for 1 day in a mesoderm differentiation induction medium free of CHIR99021 or cyclopamine was investigated using immunofluorescent staining of Brachyury. The mesoderm induction ratio was determined from the ratio of Brachyury-positive embryoid bodies in all embryoid bodies present in an immunostaining photographic image."}
{"smiles": "CC1=C2C[C@H]3[C@@H](CC=C4C[C@@H](O)CC[C@@]43C)[C@@H]2CC[C@]12O[C@@H]1C[C@H](C)CN[C@H]1[C@H]2C", "note": "[cyclopamine]", "values": [{"measurement": "mesoderm induction ratio (ratio of Brachyury-positive embryoid bodies in all embryoid bodies)", "value": 40, "unit": "%"}]}
